From article PMC5447464 (Gastroenterology, 2017)

System: primary hepatocytes Hu1651
Assay: Viability of primary hepatocytes Hu1651
Format: cell-based
Details: Homo sapiens, Hepatocyte, read-out: IC50 in primary hepatocytes, Hu1651

O=C(Nc1ccc([N+](=O)[O-])cc1Cl)c1cc(Cl)ccc1O [niclosamide]
pIC50: 5.45

pIC50: −log10 of the molar value.
